# Biological target: full-length human PIKFYVE (Homo sapiens, UniProt Q9Y2I7, L932S/Q1183K/Q995L/S1033A/S696N/T998S)
# Amino acid sequences for entries named in this document (tags omitted).
# UniProt Q9Y2I7, whole entry S696N/L932S/Q995L/T998S/S1033A/Q1183K: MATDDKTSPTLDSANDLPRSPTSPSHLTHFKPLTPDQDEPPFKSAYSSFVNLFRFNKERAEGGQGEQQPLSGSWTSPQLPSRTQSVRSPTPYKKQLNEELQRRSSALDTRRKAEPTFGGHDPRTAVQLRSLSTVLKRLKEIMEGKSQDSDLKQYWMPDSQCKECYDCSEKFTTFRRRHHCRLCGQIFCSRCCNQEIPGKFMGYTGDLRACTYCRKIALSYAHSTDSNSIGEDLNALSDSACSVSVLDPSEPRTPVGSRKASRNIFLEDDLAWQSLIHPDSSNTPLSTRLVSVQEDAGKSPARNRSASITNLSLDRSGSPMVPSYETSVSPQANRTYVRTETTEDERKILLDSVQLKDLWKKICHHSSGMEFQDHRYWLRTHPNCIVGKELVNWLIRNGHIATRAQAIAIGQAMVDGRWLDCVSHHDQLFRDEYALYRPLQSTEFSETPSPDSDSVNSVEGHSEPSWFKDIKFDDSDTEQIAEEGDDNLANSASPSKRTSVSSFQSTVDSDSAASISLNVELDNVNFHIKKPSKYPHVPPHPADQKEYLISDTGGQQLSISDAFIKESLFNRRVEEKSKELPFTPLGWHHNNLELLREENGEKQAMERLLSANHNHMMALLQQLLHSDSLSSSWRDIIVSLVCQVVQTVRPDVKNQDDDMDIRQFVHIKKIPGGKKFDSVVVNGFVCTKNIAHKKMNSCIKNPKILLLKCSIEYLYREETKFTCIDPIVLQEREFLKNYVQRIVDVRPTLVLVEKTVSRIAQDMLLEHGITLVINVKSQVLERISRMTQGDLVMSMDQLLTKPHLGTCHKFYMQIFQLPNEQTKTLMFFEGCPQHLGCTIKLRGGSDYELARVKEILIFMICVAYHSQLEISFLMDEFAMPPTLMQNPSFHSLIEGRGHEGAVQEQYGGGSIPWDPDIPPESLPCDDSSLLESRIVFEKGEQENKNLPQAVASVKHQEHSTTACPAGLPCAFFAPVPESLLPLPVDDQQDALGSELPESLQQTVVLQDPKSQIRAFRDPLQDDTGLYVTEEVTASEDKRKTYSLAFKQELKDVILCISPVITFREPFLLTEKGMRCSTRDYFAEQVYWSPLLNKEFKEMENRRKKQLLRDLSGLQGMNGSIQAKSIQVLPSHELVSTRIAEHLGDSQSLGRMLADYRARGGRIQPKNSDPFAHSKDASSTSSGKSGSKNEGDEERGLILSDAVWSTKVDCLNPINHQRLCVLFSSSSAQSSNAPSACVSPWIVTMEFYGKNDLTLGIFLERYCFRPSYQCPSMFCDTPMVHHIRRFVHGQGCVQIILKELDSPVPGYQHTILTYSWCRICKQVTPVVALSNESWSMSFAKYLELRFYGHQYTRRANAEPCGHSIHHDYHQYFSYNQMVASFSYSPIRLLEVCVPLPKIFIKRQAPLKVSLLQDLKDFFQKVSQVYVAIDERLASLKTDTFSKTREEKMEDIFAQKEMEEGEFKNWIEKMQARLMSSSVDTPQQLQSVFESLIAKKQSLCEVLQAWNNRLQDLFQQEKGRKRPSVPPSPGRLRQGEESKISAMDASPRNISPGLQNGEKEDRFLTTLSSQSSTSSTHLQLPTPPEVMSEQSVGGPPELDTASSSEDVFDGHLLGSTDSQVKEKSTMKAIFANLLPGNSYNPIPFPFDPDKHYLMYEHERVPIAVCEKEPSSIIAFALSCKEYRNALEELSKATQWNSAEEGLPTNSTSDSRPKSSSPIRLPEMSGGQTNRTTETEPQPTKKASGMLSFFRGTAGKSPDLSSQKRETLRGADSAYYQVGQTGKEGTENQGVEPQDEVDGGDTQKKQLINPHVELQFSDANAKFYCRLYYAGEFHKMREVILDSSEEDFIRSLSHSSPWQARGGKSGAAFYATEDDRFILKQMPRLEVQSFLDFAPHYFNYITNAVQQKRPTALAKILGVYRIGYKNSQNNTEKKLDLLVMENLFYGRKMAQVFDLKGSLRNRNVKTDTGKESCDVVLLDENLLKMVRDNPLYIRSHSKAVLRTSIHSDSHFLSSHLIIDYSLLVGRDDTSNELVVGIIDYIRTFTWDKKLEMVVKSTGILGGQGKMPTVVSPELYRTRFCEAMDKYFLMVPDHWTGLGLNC
# Assay: PIKfyve biochemical assay (ADP-Glo Kinase assay, Carna Biosciences)
# Settings: read-out: hPIKfyve IC50, GST-PIKFYVE, 10 μM to 3 nM in duplicate
smiles,measurement,value
c1ccc(-n2ccc(-c3nc(N4CCOCC4)c4ncccc4n3)n2)cc1,IC50,100 to 1000 nM

# Reference: patent US20250288589A1, “PYRIDOPYRIMIDINES AND METHODS OF THEIR USE” (Kineta, Inc., priority 2021, published 2025)
